From US9908890B2, “Selective inhibitors of constitutive androstane receptor” (ST. JUDE CHILDREN'S RESEARCH HOSPITAL, priority 2014, dated 2018)

Target: T1, GST-hCAR-LBD (Homo sapiens, UniProt Q14994)
T1 construct: purchased Life Technologies (Carlsbad, Calif.) or Invitrogen (Carlsbad, Calif.)
T1 sequence (Q14994 109-352 limits assumed): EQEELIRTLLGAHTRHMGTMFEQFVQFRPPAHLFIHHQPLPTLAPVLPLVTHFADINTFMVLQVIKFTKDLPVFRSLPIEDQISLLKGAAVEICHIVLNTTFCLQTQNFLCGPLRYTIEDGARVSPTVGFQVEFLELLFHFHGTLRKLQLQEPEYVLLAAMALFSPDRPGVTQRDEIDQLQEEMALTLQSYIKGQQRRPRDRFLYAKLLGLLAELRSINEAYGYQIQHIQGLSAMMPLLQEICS
Test: CoAct binding inverse agonist assay (LanthaScreen TR-FRET, fluorescent PGC-1α coactivator recruitment/repression)
Type: biochemical
Description: The effect of putative CAR ligands on the recruitment or repression of PGC-1α binding to hCAR was evaluated by using a LanthaScreen TR-FRET assay according to the manufacturer's instructions. […] The final DMSO concentration was 0.7% in all assay wells. […] The % Inhibition values were then plotted for individual chemicals. When applicable, the graphic software GraphPad Prism 5.04 (GraphPad Software, La Jolla, Calif., USA) was used to fit the data into a one-site competitive-binding equation to derive IC50 values. […] The assay plates were then briefly spun down and incubated for 1 hour at room temperature (25° C.). […] The final DMSO concentration was 0.7% in all assay wells. […] The % Inhibition values were then plotted for individual chemicals. When applicable, the graphic software GraphPad Prism 5.04 (GraphPad Software, La Jolla, Calif., USA) was used to fit the data into a one-site competitive-binding equation to derive IC50 values.

SMILES: CCOC(=O)Nc1ccc2c(c1)N(C(=O)CN1[C@H]3CC[C@@H]1CC3)c1ccccc1CC2 [Compound 20, ethyl (5-(2-((1s,4s)-7-azabicyclo[2.2.1]heptan-7-yl)acetyl)-10,11-dihydro-5H-dibenzo[b,f]azepin-3-yl)carbamate]
- IC50: 1.41 µM
